# Results as given in ChEMBL document CHEMBL2150997, “Profiling of a prescription drug library for potential renal drug-drug interactions mediated by the organic cation transporter 2” (J Med Chem, 2011).
# Target: T1, Multidrug and toxin extrusion protein 1 (Homo sapiens, UniProt Q96FL8)
# T1 sequence (Q96FL8 whole entry): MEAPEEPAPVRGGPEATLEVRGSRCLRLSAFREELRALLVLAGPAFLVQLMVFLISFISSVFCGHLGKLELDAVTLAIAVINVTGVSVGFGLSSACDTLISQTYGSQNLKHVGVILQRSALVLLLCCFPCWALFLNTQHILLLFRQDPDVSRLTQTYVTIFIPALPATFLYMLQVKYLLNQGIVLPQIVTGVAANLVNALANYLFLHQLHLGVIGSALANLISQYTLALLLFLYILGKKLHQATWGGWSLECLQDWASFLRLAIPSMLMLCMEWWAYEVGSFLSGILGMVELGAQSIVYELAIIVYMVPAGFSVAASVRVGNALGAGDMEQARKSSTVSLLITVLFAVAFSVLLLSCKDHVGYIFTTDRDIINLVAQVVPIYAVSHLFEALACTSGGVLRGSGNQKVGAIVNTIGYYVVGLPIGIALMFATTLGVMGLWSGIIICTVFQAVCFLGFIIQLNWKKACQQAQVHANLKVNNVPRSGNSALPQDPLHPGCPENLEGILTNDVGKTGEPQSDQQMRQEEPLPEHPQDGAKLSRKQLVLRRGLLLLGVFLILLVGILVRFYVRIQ
row,SMILES,IC50 [nM]
1,CN/C(=N/CCSCc1nc[nH]c1C)NC#N [CIMETIDINE],5700
2,Cc1nccn1CC1CCc2c(c3ccccc3n2C)C1=O (stereo not drawn) [ONDANSETRON],150
3,Nc1c2c(nc3ccccc13)CCCC2 [TACRINE],1100
